Data published in patent US20070077583A1, “Alpha enolase-directed diagnostics and therapeutics for cancer and chemotherapeutic drug resistance” (Aurelium BioPharma, Inc., priority 2005, published 2007).

Test system: PC-3 cells
Test: MTT cytotoxicity assay, PC-3 cells transfected with α-enolase siRNA
Assay type: cell-based

## CC(=O)O[C@@]12CO[C@@H]1C[C@H](O)[C@@]1(C)C(=O)[C@H](O)C3=C(C)[C@@H](OC(=O)[C@H](O)[C@@H](NC(=O)OC(C)(C)C)c4ccccc4)C[C@@](O)([C@@H](OC(=O)c4ccccc4)[C@H]21)C3(C)C [Docetaxel]
  combination with enolase siRNA in cell killing: synergistic
